{"sequences": {"note": "Chains of the proteins cited; added tags and fusions are not shown.", "UniProt O94759, whole entry": "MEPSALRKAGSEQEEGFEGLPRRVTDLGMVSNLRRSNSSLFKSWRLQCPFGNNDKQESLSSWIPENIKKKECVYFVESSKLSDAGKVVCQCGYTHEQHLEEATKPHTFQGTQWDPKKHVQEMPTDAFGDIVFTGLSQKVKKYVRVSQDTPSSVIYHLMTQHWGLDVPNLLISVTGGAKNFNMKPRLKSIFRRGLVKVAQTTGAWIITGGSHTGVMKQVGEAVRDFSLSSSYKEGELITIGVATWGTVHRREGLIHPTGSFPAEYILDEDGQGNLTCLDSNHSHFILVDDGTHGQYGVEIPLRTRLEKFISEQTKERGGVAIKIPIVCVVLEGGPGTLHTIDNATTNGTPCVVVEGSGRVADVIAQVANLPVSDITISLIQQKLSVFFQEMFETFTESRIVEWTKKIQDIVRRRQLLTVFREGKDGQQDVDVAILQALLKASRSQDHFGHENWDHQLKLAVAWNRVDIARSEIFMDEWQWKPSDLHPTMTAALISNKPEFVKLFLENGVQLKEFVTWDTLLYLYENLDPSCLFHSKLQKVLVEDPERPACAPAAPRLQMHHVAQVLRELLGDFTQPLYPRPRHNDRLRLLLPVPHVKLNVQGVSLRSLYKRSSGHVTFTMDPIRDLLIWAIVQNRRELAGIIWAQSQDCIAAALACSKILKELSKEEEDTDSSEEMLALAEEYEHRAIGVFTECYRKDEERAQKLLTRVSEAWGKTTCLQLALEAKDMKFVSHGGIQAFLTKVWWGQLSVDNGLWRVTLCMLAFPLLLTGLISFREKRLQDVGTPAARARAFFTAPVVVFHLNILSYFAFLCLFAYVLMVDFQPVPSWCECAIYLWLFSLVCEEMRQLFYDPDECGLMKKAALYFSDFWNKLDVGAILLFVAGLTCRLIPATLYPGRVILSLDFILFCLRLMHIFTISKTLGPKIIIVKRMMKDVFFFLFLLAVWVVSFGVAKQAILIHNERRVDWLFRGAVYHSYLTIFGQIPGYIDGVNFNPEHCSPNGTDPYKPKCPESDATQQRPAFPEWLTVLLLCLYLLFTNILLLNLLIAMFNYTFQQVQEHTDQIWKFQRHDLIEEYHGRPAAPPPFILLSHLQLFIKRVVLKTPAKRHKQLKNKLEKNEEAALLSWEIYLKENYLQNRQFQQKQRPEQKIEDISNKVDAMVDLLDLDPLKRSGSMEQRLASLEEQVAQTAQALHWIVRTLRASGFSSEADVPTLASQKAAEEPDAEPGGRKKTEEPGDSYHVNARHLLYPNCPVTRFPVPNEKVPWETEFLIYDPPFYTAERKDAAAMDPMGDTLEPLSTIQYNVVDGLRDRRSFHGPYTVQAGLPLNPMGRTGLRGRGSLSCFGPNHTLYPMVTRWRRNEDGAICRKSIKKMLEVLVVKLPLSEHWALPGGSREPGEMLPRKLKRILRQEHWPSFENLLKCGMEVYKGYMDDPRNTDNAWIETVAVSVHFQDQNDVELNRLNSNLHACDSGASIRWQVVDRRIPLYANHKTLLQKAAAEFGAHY"}, "source": "ChEMBL document CHEMBL4842361", "about": "“Design, synthesis and biological activities of benzo[d]imidazo[1,2-a]imidazole derivatives as TRPM2-specfic inhibitors” (Eur J Med Chem, 2021)", "target": "Transient receptor potential cation channel subfamily M member 2 (Homo sapiens, UniProt O94759)", "assay": "Inhibition of human TRPM2 expressed in HEK293T cells cotransfected with GFP assessed as reduction in ADPR-induced current by whole cell patch-clamp method", "type": "cell-based", "data": [{"smiles": "NCCOB(c1ccccc1)c1ccccc1", "values": [{"measurement": "IC50", "value": 5, "unit": "µM"}]}]}
